Reference: patent US9346810B2, “Pyrrolopyrimidine compounds and uses thereof” (HUTCHISON MEDIPHARMA LIMITED, priority 2010, dated 2016)
pIC50: −log10 of the molar value. Read-outs that look alike come from different tables or passages of the source. One block for each compound: values may come before it.

Amino acid sequences for entries named in this document (tags omitted). Residues count along the entry.
UniProt O60674, 849-1124: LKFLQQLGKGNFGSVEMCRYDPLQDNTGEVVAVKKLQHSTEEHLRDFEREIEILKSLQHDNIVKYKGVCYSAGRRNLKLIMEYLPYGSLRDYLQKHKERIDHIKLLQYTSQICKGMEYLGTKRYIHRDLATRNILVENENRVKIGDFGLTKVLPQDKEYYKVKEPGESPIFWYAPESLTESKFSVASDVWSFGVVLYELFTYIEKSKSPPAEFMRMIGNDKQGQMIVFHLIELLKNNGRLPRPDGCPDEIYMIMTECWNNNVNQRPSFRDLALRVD
UniProt P52333, 822-1111: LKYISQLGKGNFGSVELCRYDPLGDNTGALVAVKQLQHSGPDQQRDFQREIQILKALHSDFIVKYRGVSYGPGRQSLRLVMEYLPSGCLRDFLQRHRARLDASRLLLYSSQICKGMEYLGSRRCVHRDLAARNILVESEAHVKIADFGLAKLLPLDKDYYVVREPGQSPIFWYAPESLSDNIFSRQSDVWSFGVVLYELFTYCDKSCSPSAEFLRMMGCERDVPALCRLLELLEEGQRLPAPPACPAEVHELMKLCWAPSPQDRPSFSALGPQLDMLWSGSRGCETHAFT
UniProt P23458, 875-1153: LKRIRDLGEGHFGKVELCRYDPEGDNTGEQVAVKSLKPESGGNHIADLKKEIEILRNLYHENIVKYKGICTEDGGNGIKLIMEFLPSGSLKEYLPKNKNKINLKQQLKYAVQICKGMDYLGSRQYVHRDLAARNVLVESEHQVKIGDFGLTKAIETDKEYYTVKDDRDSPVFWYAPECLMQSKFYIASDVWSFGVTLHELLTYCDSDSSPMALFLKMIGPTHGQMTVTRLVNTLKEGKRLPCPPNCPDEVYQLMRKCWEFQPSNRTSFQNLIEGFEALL

Experiments:
Format in all cases: biochemical
[1] = target: Recombinant human JAK2 catalytic domain (Homo sapiens (Human), UniProt O60674); assay: JAK2 kinase assay (Z'-LYTE, Tyr 6 Peptide)
Method: (§1) JAK1/2/3 kinase assay are performed in vitro using Kit-Tyr 6 Peptide (Invitrogen, Cat. No. PV4122). TYK2 kinase assay are performed in vitro using Z′-LYTE™ Kinase Assay Kit-Tyr 3 Peptide (Invitrogen, Cat. No. PV3192). […] All compounds are initially tested at 8 different concentrations (1 μM down to 0.0003 μM) using a 1:3 serial dilution scheme.

[2] = target: Recombinant human JAK3 catalytic domain (Homo sapiens (Human), UniProt P52333); assay: JAK3 kinase assay (Z'-LYTE, Tyr 6 Peptide)
Method: as §1

[3] = target: Recombinant human JAK1 catalytic domain (Homo sapiens (Human), UniProt P23458); assay: JAK1 kinase assay (Z'-LYTE, Tyr 6 Peptide); settings: read-out: JAK1 (enzyme, IC50)
Method: as §1

[4] = read-out: IC50 in JAK2 kinase assay
[5] = read-out: IC50 in JAK3 kinase assay

Compound: CN(c1nc(C#N)cs1)[C@@H]1CCN(c2ncnc3[nH]ccc23)C1 [Compound 93]
pIC50 [1]: 7.00 to 9.00
pIC50 [2]: 6.00 to 7.00

Compound: CN(c1ncc(C#N)cn1)[C@@H]1CCN(c2ncnc3[nH]ccc23)C1 [Compound 142, (R)-2-((1-(7H-pyrrolo[2,3-d]pyrimidin-4-yl)pyrrolidin-3-yl)(methyl)amino)pyrimidine-5-carbonitrile]
pIC50 [3]: 8.03
pIC50 ([1]; read-out: JAK2 (enzyme, IC50)): 7.26

Compound: CN(c1ccc(C(=O)NC2c3ccccc3CC2O)cc1F)[C@@H]1CCN(c2ncnc3[nH]ccc23)C1 (some centres unmarked) [Compound 184]
pIC50 [1, 4]: 7.00 to 9.00
pIC50 [2, 5]: 6.00 to 7.00

Results, then the compound that gave them:

pIC50 [1, 4]: 7.00 to 9.00
Compound: CN(c1ccc(C(=O)NC2c3ccccc3C[C@H]2O)cc1F)[C@@H]1CCN(c2ncnc3[nH]ccc23)C1 (single isomer, unassigned) [Compound 204]

pIC50 [2, 5]: 6.00 to 7.00
Compound: CN(c1ccc(C(=O)NC(CO)c2ccc(Cl)cc2)cc1F)[C@@H]1CCN(c2ncnc3[nH]ccc23)C1 (some centres unmarked) [Compound 201]

pIC50 [2, 5]: 6.00 to 7.00
Compound: CN(c1ccc(C(=O)NC[C@H](O)c2ccccc2)cc1F)[C@@H]1CCN(c2ncnc3[nH]ccc23)C1 [Compound 202]

pIC50 ([1]; read-out: JAK2 (enzyme, IC50)): 9.30
pIC50 ([2]; read-out: JAK3 (enzyme, IC50)): 7.33
Compound: CN(c1ccc(C(=O)N[C@@H]2c3ccccc3C[C@H]2O)cc1F)[C@@H]1CCN(c2ncnc3[nH]ccc23)C1 [Compound 206]
